{
  "source": "paper PMC10030653",
  "about": "“ClpC2 protects mycobacteria against a natural antibiotic targeting ClpC1-dependent protein degradation” (Communications Biology, 2023)",
  "system": "luc transcript under the control of the clpC2 promoter",
  "test": "RT-qPCR of luciferase reporter under clpC2 promoter after CymA",
  "conditions": "for Cq value (printed ClpC2) / Cq value RpoB (reference gene): 150 nM CymA",
  "key": {"[1]": {"conditions": "Msm WT reporter strain, replicate 1"}, "[2]": {"conditions": "Msm WT reporter strain, replicate 2"}, "[3]": {"conditions": "Msm WT reporter strain, replicate 3"}, "[4]": {"conditions": "Msm ΔclpC2 reporter strain, replicate 1"}, "[5]": {"conditions": "Msm ΔclpC2 reporter strain, replicate 2"}, "[6]": {"conditions": "Msm ΔclpC2 reporter strain, replicate 3"}},
  "note": "Numbered stars: 1 amine (or outer) side, 2 acyl side, 3 side chain; on linkers, the order of the positions; unused ones are H or OH. Square brackets hold non-standard residues; d marks the D form. Peptide text beside a SMILES is read from it. X1 = CC(C)([C@@H]1CO1)n1cc([C@@H](O)[C@H](N[*:1])C(=O)[*:2])c2ccccc21; Ala(3R-Me,3-isobutenyl) = CC(C)=C[C@@H](C)[C@H](N)C(=O)O; NMeLeu(5-OH,4R) = CN[C@@H](C[C@@H](C)CO)C(=O)O; Phe(βR-OMe) = CO[C@H](c1ccccc1)[C@H](N)C(=O)O; NMeL = CN[C@@H](CC(C)C)C(=O)O",
  "data": [
    {"smiles": "CO[C@H](c1ccccc1)[C@@H]1NC(=O)[C@H](C)NC(=O)[C@H](C[C@@H](C)CO)N(C)C(=O)[C@H]([C@H](O)c2cn(C(C)(C)[C@@H]3CO3)c3ccccc23)NC(=O)[C@H]([C@H](C)C=C(C)C)NC(=O)[C@H](CC(C)C)N(C)C(=O)[C@H](C(C)C)NC1=O", "note": "[CymA, cyclomarin A] (cyclo(A[Phe(βR-OMe)]V[NMeL][Ala(3R-Me,3-isobutenyl)][X1][NMeLeu(5-OH,4R)]))", "values": [
      {"measurement": "luciferase expression, WT reporter strain", "setting": "150 nM CymA vs absence of CymA, Msm WT, normalised to rpoB", "result": "significantly higher"},
      {"measurement": "CymA-dependent luciferase expression, ΔclpC2 reporter strain", "setting": "150 nM CymA vs absence, Msm ΔclpC2", "result": "not observed"},
      {"measurement": "Cq value (printed ClpC2)", "setting": "[1]", "result": 20.6929},
      {"measurement": "Cq value RpoB (reference gene)", "setting": "[1]", "result": 23.3719},
      {"measurement": "Cq value (printed ClpC2)", "setting": "[2]", "result": 20.7341},
      {"measurement": "Cq value RpoB (reference gene)", "setting": "[2]", "result": 23.3923},
      {"measurement": "Cq value (printed ClpC2)", "setting": "[3]", "result": 20.7565},
      {"measurement": "Cq value RpoB (reference gene)", "setting": "[3]", "result": 23.3048},
      {"measurement": "Cq value (printed ClpC2)", "setting": "[4]", "result": 20.5263},
      {"measurement": "Cq value RpoB (reference gene)", "setting": "[4]", "result": 23.28},
      {"measurement": "Cq value (printed ClpC2)", "setting": "[5]", "result": 20.828},
      {"measurement": "Cq value RpoB (reference gene)", "setting": "[5]", "result": 23.4048},
      {"measurement": "Cq value (printed ClpC2)", "setting": "[6]", "result": 19.8021},
      {"measurement": "Cq value RpoB (reference gene)", "setting": "[6]", "result": 22.3677}
    ]}
  ]
}
